## Experimental properties from OPERA 2.9

Source: data files of OPERA 2.9 (Mansouri et al.), github.com/kmansouri/OPERA.

The melting point is given in degrees Celsius. The boiling point refers to atmospheric pressure (760 mmHg), by the definition of the set. logP is the log10 of the octanol-water partition coefficient; higher is more lipophilic. Solubility in water is on a log10 molar scale (set defined at 25 °C). Vapor pressures (log10 mmHg) refer to near room temperature, 15 to 30 °C; higher is more volatile. The Henry's law constant is on a log10 scale in atm·m3/mol (set defined at 25 °C); higher favours air over water. fu is the fraction unbound in human plasma, from 0 to 1. Clint is human hepatic intrinsic clearance in µL/min per million cells; 0 means that no clearance was seen.

* CO/N=C(/C1=NOCCO1)c1ccccc1Oc1ncnc(Oc2ccccc2Cl)c1F [Fluoxastrobin]: water solubility -5.3 (log10 mol/L); fraction unbound 0.0367; intrinsic clearance 16.35 µL/min/10^6 cells
* S=P(Oc1ccccc1)(Oc1ccccc1)Oc1ccccc1 [Phosphorothioic acid, O,O,O-triphenyl ester]: melting point 53.1 °C; log Kow 5; water solubility -7.094 (log10 mol/L)
* CC(C)CC(C)(C#N)N=NC(C)(C#N)CC(C)C (stereo not given) [2,2'-Azobis[2,4-dimethylvaleronitrile]]: melting point 54.2 °C; log Kow 3.319
* O=CNC(N1CCN(C(NC=O)C(Cl)(Cl)Cl)CC1)C(Cl)(Cl)Cl (stereo not given) [N,N'-Bis(1-formamido-2,2,2-trichloroethyl)piperazine]: melting point 155 °C; log H -7.732 (log10 atm·m3/mol)
* CCOP(=S)(OCC)OC(=O)/C(=N\OC)c1csc(N)n1: melting point 88 °C; log Kow 2.66; vapor pressure -6.152 (log10 mmHg)
* CCC1C(=O)NC(=O)NC1=O [5-Ethylbarbituric acid]: melting point 191 °C; water solubility -1.427 (log10 mol/L)
* CC(=O)CCC(C)=O [2,5-Hexanedione]: vapor pressure -0.367 (log10 mmHg); fraction unbound 0.93
* CC(C)(C)OOC(C)(C)c1cccc(C(C)(C)OOC(C)(C)C)c1: water solubility -6.927 (log10 mol/L); vapor pressure -6.046 (log10 mmHg)
* O=c1[n-]c(=O)n(Cl)c(=O)n1Cl.[Na+] [Sodium dichloroisocyanurate]: log Kow 0; vapor pressure -4.347 (log10 mmHg)
* CN(C)C(=S)[S-].CN(C)C(=S)[S-].[Zn+2] [Ziram]: log Kow 1.23; vapor pressure -6.87 (log10 mmHg)
* CCCC(=NOCC)C1=C(O)CC(CC(C)SCC)CC1=O (stereo not given) [Sethoxydim]: water solubility -2.974 (log10 mol/L); log H -10.86 (log10 atm·m3/mol); intrinsic clearance 11.87 µL/min/10^6 cells
* CC(C)COC(=O)Cc1ccccc1 [Isobutyl phenylacetate]: water solubility -3.271 (log10 mol/L); vapor pressure -1.709 (log10 mmHg)
* CC(=O)OC1=CC[C@H]2[C@@H]3CC[C@H]4CC=CC[C@]4(C)[C@H]3CC[C@]12C [(5alpha)-Androsta-2,16-dien-17-yl acetate]: melting point 98 °C; water solubility -7.568 (log10 mol/L)
* O=c1[nH]c2ccccc2n1C1CCN(CCCC(c2ccc(F)cc2)c2ccc(F)cc2)CC1 [Pimozide]: water solubility -4.66 (log10 mol/L); fraction unbound 0.05
* N#CCCC(Br)(C#N)CBr (stereo not given) [1,2-Dibromo-2,4-dicyanobutane]: water solubility -2.205 (log10 mol/L); vapor pressure -4.299 (log10 mmHg)
* CC(C)(Cl)CCl [1,2-Dichloro-2-methylpropane]: boiling point 106 °C; vapor pressure 1.449 (log10 mmHg)
* CC(C)(C)C(=O)C(Oc1ccc(Cl)cc1)n1cncn1 (stereo not given) [Triadimefon]: log H -9.051 (log10 atm·m3/mol); fraction unbound 0.1038; intrinsic clearance 14.59 µL/min/10^6 cells
* Clc1ccc(-c2ccc(Cl)c(Cl)c2)cc1 [3,4,4'-Trichlorobiphenyl]: melting point 88 °C; vapor pressure -4.205 (log10 mmHg)
* FC(F)(F)c1ccc(Cl)cc1 [1-Chloro-4-(trifluoromethyl)benzene]: log Kow 3.7; water solubility -3.728 (log10 mol/L)
* C[C@]12CC[C@H]3[C@@H](CC[C@@]45O[C@@H]4C(O)=C(C#N)C[C@]35C)[C@@H]1CC[C@@H]2O [Trilostane]: log Kow 3; water solubility -3.745 (log10 mol/L)

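The OPERA project collected these measurements from public sources as training and test data for property models. The files give a single number for a compound and property, which may rest on several reports. Conditions of the individual experiments are not part of the data. A value may pool stereoisomers or salt forms, and the file does not say which form was measured. Some entries may be limits or estimates that an upstream database listed as plain numbers.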